## AlphaSeq binding of Ab-14 heavy chain variants to a spike HR2 peptide

Source: Li et al. 2023 (doi:10.1038/s41467-023-39022-2), MIT Lincoln Laboratory and A-Alpha Bio; data file from the FLAb repository.

The target is the same throughout: PDVDLGDISGINAS, from the HR2 region of SARS-CoV-2 spike.

Parent scFv Ab-14: VH joined to VL by a (GGGGS)3 linker. Changes lie in the heavy chain CDRs alone.
VH: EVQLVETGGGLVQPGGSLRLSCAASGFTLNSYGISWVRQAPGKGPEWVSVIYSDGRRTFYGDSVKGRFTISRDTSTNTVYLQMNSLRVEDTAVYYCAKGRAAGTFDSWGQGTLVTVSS
VL: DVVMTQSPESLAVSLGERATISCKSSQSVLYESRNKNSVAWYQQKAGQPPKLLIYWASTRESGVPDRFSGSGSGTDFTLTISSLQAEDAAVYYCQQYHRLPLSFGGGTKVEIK

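The starting antibody came from a phage panning campaign against this peptide. Designed CDR sequences, proposed from the first random library and measured here. Group labels follow the data file (Ctrl: baseline library sampled from a position-specific scoring matrix, with some repeated check sequences; Rand: our label for a block that the file lists under HC and that is probably the random mutants of the ten best first-round binders; En: ensemble of fine-tuned language models; GP: Gaussian process model; GPLM: also part of the Gaussian process libraries; HC: hill climbing; Gen: genetic algorithm; Gibbs: Gibbs sampling; a sequence that several methods proposed may carry one label only). In AlphaSeq, yeast of one mating type display the scFv and yeast of the other type display the target. Binding brings cells together so that they mate, and sequencing counts the barcode pairs among the diploids. Read counts were normalised to the haploid input and turned into Kd by a linear fit to BCL2-family pairs of known affinity, for each replicate. Mating was done six times.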

Variants are written as CDR1, CDR2 and CDR3 of the heavy chain (limits as in the source). Parent: GFTLNSYGIS, VIYSDGRRTFYGDSVK, GRAAGTFDS. The Kd shown is the geometric mean over detected replicates; a lower Kd is a better binder. "nd" means that the variant was in the library but no mating with the target was seen in any replicate; the authors take this as a sign of poor binding, and no number exists. Three control strains display no target. For all heavy chain designs, 1% of the pairings with them gave a signal, with a median of 120 nM and one signal in twenty below 7.0 nM, so weak values seen in few replicates may be background. Some sequences occur more than once in the pool; their replicates are pooled. The authors' rule: three or more of the six replicates give a measured affinity, fewer mean a poor binder. A sequence measured in both rounds can read differently, since the two assays cover different ranges.

Read-out 5.6 nM (1 of 6 replicates), from GFTLNSYGIS, VIYSDGRRTFYGDDVA, GRAAGTFDW [Ctrl].
Read-out 140 nM (7 of 12 replicates), from GFQLNSYGIS, VIYSDGRRTFYGDSVK, GRAAGTFDS [Ctrl+GP_HC].
Read-out 140 nM (2 of 6 replicates), from HFSLNSYGIS, VIYSDGRRTFYADSVK, GNAAGTFDS [GPLM_Gen].
Read-out nd (0 of 6 replicates), from GFTLNSYGIS, VIYSDGKRTFYGDSVK, GQDAATFDS [Ctrl].
Read-out 20 nM (6 of 6 replicates), from GFTLNSYGIS, VIYSDGRRTFYADSVK, GRAAGTFDK [GPLM_HC].
Read-out 230 pM (6 of 6 replicates), from GFDLNEYGIS, VIYADGKRTAYSDSVK, GNVAGTFDV [En_Gen].
Read-out nd (0 of 6 replicates), from GFTLNSYGIS, VIYSDGRRMFYGDCVK, GRAAQTFDS [Ctrl].
Read-out 500 pM (6 of 6 replicates), from GFDLNEYGIS, VIYADGRRTAYGDSVK, GTNAGTFDV [En_HC].
Read-out 20 nM (4 of 6 replicates), from GIDMQEYGIS, VIYADGLRAAYSDNFK, GVLGGTFDM [En_Gibbs].
Read-out 100 nM (5 of 6 replicates), from GFNLDEYGIS, VIYADGRRTFYTDSVK, GGNAGTFDV [En_HC].
Read-out 20 nM (6 of 6 replicates), from GFTLNEYGIS, VIYSDGRRTFYIDSVK, GRHAGTFDS [GPLM_Gen].
Read-out 180 pM (6 of 6 replicates), from GFDLNEYGIS, VIYADGSRTFYSDSVK, GNQAGTFDS [En_HC].
Read-out nd (0 of 6 replicates), from GFTLKSYGIS, VIYSDGRRTFYADSVK, GRAAGTKDN [Ctrl].
Read-out nd (0 of 6 replicates), from GFDLNSYGIS, VIYSDGRRTFYGDSVK, GRGAGAFNS [GP_HC].
Read-out nd (0 of 6 replicates), from GFTLNSYGIS, VIYSDGRRTFYGDSVK, GSAAGSFDS [Ctrl].
Read-out 14 nM (6 of 6 replicates), from GFNLNSYGIS, VIYSDGRRTFYDDSVK, GQNAGTFDS [GPLM_HC].
Read-out 1.1 nM (6 of 6 replicates), from GFSLNQYGIS, VIYSDGRRTFYGDSVK, GQTAGTFDS [GPLM_Gen].
Read-out nd (0 of 6 replicates), from GQDLQEYGVS, VIYADGKRTAYADSFK, GKSLGLIFV [En_Gibbs].
Read-out nd (0 of 6 replicates), from GFTLNEYGIS, VIYSDGMRTFYGDSVK, LRSAGTFDS [Ctrl].
Read-out 2.3 nM (6 of 6 replicates), from GFGLNSYGIS, VIYSDGRRTFYSDSVK, GKAAGTFDS [GPLM_Gibbs].
Read-out nd (0 of 6 replicates), from GFTLNQYGWS, VQYSDGDRTFYVDSVK, GRAAGFFDS [Rand].
Read-out nd (0 of 6 replicates), from GFNLDEYGVS, VIYADGHRTAYVNTVK, GKTGFVLFD [En_Gibbs].
Read-out 540 pM (6 of 6 replicates), from GFDLNEYGIS, VIYADGMRKAYADSVK, GTNAGTFDV [En_Gen].
Read-out nd (0 of 6 replicates), from GFTLNDYGIS, VIYSDGRRTQYKDSVK, GRAACTFDS [Rand].
Read-out 3.3 nM (5 of 6 replicates), from GFSLNSYGIS, VIYSDGRRTFYEDSVK, GRAAGTFLS [Ctrl].
Read-out nd (0 of 6 replicates), from GFQLNEYGIS, VIYADGMRSEYQDSVK, GSNNSSFKV [En_Gibbs].
Read-out nd (0 of 6 replicates), from GFSLNSYGIS, VIYADGRRTFYGDSVK, GRAAVTFDS [Ctrl].
Read-out 6.9 µM (1 of 6 replicates), from GFTLNSYGIS, VIYSDGRRTFYGDAVK, GHQAGQFDS [Ctrl].
Read-out 870 pM (6 of 6 replicates), from GFDLNEYGIS, VIYADGMRTAYTDSVK, GGNAGTFDV [En_Gen].
Read-out 450 pM (6 of 6 replicates), from GFDLNEYGIS, VIYADGRRTFYSDSVK, GEVGGTFDS [En_HC].
Read-out nd (0 of 6 replicates), from GFTLNSYGIS, VIYSDGRRTFYNDSVK, GQAAGTMDS [Ctrl].
Read-out 4.7 nM (6 of 6 replicates), from GFDLNSYGIS, VIYSDGRRTAYGDSVK, GRAAGTFDQ [GP_Gen].
Read-out 680 pM (6 of 6 replicates), from GFDLNEYGIS, VIYADGMRTFYADNVK, GNVAGTFDL [En_Gen].
Read-out 1.4 nM (6 of 6 replicates), from GFSLDEYGIS, VIYADGRRTFYADSVK, GNVAGTFDS [En_HC].
Read-out 300 pM (6 of 6 replicates), from GFDLNEYGIS, VIYADGKRTFYADSVK, GNEAGTFDM [En_HC].
Read-out 39 nM (4 of 6 replicates), from RFTLNSYGIS, VIYSDGRRTFYGDSVK, GGAAATFDS [Ctrl].
Read-out nd (0 of 6 replicates), from GKEIEEYGIS, VIYADGMRQAYAESVK, GQVAGTGKF [En_Gibbs].

Extract of 5 entries:

Variant GFDLNEYGIS, VIYADGRRTAYGDSVK, GTNAGTFDV [En_HC] gave 500 pM (6 of 6 replicates).
Variant GFDLNEYGIS, VIYADGRRTFYSDSVK, GEVGGTFDS [En_HC] gave 450 pM (6 of 6 replicates).
Variant GFTLNQYGWS, VQYSDGDRTFYVDSVK, GRAAGFFDS [Rand] gave nd (0 of 6 replicates).
Variant GFDLNEYGIS, VIYADGKRTAYSDSVK, GNVAGTFDV [En_Gen] gave 230 pM (6 of 6 replicates).
Variant RFTLNSYGIS, VIYSDGRRTFYGDSVK, GGAAATFDS [Ctrl] gave 39 nM (4 of 6 replicates).